Results: patent US20120295838A1, “Selective poly-substituted glycine antibiotics and related compositions” (priority 2008, published 2012)
Read-outs that look alike come from different tables or passages of the source.

How the values were obtained:
Assay type in all cases: cell-based
[1] = system: E. coli ATCC 35218
Experimental: (§1) Whereas the preceding generation of molecules was designed to elucidate structure function relationships of specific molecular parameters (chirality, length, hydrophobicity, etc.), another generation compounds were designed explicitly to explore effects on selectivity. Antimicrobial activity of these compounds was tested against bacterial strains E. coli (ATTC 35218) and B. subtilis (ATTC 6633) in cation-adjusted MHB using the microdilution protocols previously described. The sequences, antimicrobial activities, hemolytic activities, and metabolic inhibitory concentrations against NIH 3T3 mouse fibroblast cells are summarized in Table 3 and the rationale of their design is described below.
(§2) Screening antibacterial assays. MICs were determined in 96-well microtiter plates in accordance with CLSI M7-A6 protocols. Peptoid solutions with 50 μL total volume were prepared using 2:1 serial dilutions. 50 i—tL of bacteria inoculum (1×10^6 CFU/mL) prepared in cation-adjusted Mueller-Hinton broth (CAMHB) was added to test wells. Control wells contained 100 μL MHB (no growth) or 50 μL inoculums with 50 μL MHB with no peptoid. […] Reported values were reproducible over three experiments, each containing two parallel trials.
(§3) Antibacterial Assays for Compositions. MICs were determined according to CLSI M7-A6 protocols in a 96-well microtiter plate. In test wells, 50 μL bacterial inoculum (1×10^6 CFU/ml) in cation-adjusted Mueller-Hinton broth (CAMHB) was added to 50 μL peptoid solution in CAMHB (prepared by 1:2 serial dilutions). Positive controls contained 50 μL inoculum and 50 μL CAMHB without peptoid. […] MIC values reported were reproducible between three independent experimental replicates, each consisting of two parallel trials.

[2] = system: B. subtilis ATCC 6633
Experimental: as §1, §2, §3

[3] = system: human erythrocytes; assay: Hemolysis assay

Row | SMILES | MIC for E. coli ATCC 35218 [1] [µM] | MIC for B. subtilis ATCC 6633 ([2]; ATCC 6633) [µM] | HD10 [3] [µM] | HD50 [3] [µM] | MIC for B. subtilis ATCC 6633 ([2]; Table 8, CAMHB) [µM]
1 | C[C@H](NCC(=O)N(CC(=O)N(CCCCN)CC(=O)N(CC(=O)N(CC(=O)N(CCCCN)CC(=O)N(CC(=O)N(CC(=O)N(CCCCN)CC(=O)N(CC(=O)N(CC(=O)N(CCCCN)CC(=O)N(CC(=O)N(CC(=O)N(CCCCN)CC(=O)N(CC(=O)N(CC(N)=O)[C@@H](C)c1ccccc1)[C@@H](C)c1ccccc1)[C@@H](C)c1ccccc1)[C@@H](C)c1ccccc1)[C@@H](C)c1ccccc1)[C@@H](C)c1ccccc1)[C@@H](C)c1ccccc1)[C@@H](C)c1ccccc1)[C@@H](C)c1ccccc1)[C@@H](C)c1ccccc1)[C@@H](C)c1ccccc1)c1ccccc1 [117 mer, H-Nspe-Nspe-(NLys-Nspe-Nspe)5-NH2] | 25 to 50 | 0.78 to 1.6 | 3 | 15 | –
2 | CC[C@H](C)[C@H](NC(=O)CN)C(=O)NCC(=O)N[C@@H](C)C(=O)N[C@H](C(=O)N[C@@H](CC(C)C)C(=O)N[C@@H](CCCCN)C(=O)N[C@H](C(=O)N[C@@H](CC(C)C)C(=O)N[C@H](C(=O)N[C@H](C(=O)NCC(=O)N[C@@H](CC(C)C)C(=O)N1CCC[C@H]1C(=O)N[C@@H](C)C(=O)N[C@@H](CC(C)C)C(=O)N[C@H](C(=O)N[C@@H](CO)C(=O)N[C@@H](Cc1c[nH]c2ccccc12)C(=O)N[C@H](C(=O)N[C@@H](CCCCN)C(=O)N[C@@H](CCCNC(=N)N)C(=O)N[C@@H](CCCCN)C(=O)N[C@@H](CCCNC(=N)N)C(=O)N[C@@H](CCC(N)=O)C(=O)N[C@@H](CCC(N)=O)C(N)=O)[C@@H](C)CC)[C@@H](C)CC)[C@@H](C)O)[C@@H](C)O)C(C)C)C(C)C [melittin, reference compound] | – | – | – | – | 1.6
